Article PMC2782037 (The Journal of Biological Chemistry, 2009)

Target: T1, Full-length human FANCI with an N-terminal hexahistidine tag (human, UniProt Q9NVI1-3 1-1328)
T1 sequence (looked up): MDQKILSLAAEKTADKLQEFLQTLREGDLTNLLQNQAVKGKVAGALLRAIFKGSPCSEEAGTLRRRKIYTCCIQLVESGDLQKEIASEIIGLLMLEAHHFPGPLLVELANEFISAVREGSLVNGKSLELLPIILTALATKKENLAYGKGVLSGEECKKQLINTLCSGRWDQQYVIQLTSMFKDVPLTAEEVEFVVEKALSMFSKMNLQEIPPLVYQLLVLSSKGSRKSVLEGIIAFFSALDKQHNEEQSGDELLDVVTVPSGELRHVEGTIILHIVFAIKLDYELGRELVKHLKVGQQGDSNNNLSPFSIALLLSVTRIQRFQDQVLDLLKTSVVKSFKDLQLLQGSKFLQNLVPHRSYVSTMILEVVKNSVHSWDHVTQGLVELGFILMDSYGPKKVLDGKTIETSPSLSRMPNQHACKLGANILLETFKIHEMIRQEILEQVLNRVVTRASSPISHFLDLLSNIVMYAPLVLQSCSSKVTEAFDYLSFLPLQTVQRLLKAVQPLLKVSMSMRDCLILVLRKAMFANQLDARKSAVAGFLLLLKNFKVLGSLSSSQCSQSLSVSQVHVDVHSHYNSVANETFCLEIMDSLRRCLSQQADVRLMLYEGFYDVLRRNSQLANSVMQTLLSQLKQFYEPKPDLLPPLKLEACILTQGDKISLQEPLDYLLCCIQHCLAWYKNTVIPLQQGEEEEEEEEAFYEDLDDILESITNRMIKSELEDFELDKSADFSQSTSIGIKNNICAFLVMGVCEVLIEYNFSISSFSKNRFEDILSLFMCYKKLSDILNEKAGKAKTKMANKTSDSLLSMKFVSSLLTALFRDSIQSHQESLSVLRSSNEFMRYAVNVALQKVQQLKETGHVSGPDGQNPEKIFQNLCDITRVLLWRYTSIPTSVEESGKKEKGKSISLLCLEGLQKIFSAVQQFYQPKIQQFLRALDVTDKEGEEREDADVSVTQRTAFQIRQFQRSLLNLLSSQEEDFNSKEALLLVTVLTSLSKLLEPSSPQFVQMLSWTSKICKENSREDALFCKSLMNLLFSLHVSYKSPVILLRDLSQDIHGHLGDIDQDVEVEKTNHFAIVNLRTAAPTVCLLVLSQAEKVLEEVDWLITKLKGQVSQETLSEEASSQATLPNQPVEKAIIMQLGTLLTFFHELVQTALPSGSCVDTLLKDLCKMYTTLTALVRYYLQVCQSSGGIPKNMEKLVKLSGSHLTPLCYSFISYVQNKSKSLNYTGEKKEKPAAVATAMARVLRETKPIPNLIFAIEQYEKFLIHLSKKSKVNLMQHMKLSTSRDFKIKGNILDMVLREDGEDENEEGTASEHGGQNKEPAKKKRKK
Test: SEC

B1: Human FANCD2, non-tagged (natural protein, UniProt Q9BXW9-2 1-1451, looked up)
chain: MVSKRRLSKSEDKESLTEDASKTRKQPLSKKTKKSHIANEVEENDSIFVKLLKISGIILKTGESQNQLAVDQIAFQKKLFQTLRRHPSYPKIIEEFVSGLESYIEDEDSFRNCLLSCERLQDEEASMGASYSKSLIKLLLGIDILQPAIIKTLFEKLPEYFFENKNSDEINIPRLIVSQLKWLDRVVDGKDLTTKIMQLISIAPENLQHDIITSLPEILGDSQHADVGKELSDLLIENTSLTVPILDVLSSLRLDPNFLLKVRQLVMDKLSSIRLEDLPVIIKFILHSVTAMDTLEVISELREKLDLQHCVLPSRLQASQVKLKSKGRASSSGNQESSGQSCIILLFDVIKSAIRYEKTISEAWIKAIENTASVSEHKVFDLVMLFIIYSTNTQTKKYIDRVLRNKIRSGCIQEQLLQSTFSVHYLVLKDMCSSILSLAQSLLHSLDQSIISFGSLLYKYAFKFFDTYCQQEVVGALVTHICSGNEAEVDTALDVLLELVVLNPSAMMMNAVFVKGILDYLDNISPQQIRKLFYVLSTLAFSKQNEASSHIQDDMHLVIRKQLSSTVFKYKLIGIIGAVTMAGIMAADRSESPSLTQERANLSDEQCTQVTSLLQLVHSCSEQSPQASALYYDEFANLIQHEKLDPKALEWVGHTICNDFQDAFVVDSCVVPEGDFPFPVKALYGLEEYDTQDGIAINLLPLLFSQDFAKDGGPVTSQESGQKLVSPLCLAPYFRLLRLCVERQHNGNLEEIDGLLDCPIFLTDLEPGEKLESMSAKERSFMCSLIFLTLNWFREIVNAFCQETSPEMKGKVLTRLKHIVELQIILEKYLAVTPDYVPPLGNFDVETLDITPHTVTAISAKIRKKGKIERKQKTDGSKTSSSDTLSEEKNSECDPTPSHRGQLNKEFTGKEEKTSLLLHNSHAFFRELDIEVFSILHCGLVTKFILDTEMHTEATEVVQLGPPELLFLLEDLSQKLESMLTPPIARRVPFLKNKGSRNIGFSHLQQRSAQEIVHCVFQLLTPMCNHLENIHNYFQCLAAENHGVVDGPGVKVQEYHIMSSCYQRLLQIFHGLFAWSGFSQPENQNLLYSALHVLSSRLKQGEHSQPLEELLSQSVHYLQNFHQSIPSFQCALYLIRLLMVILEKSTASAQNKEKIASLARQFLCRVWPSGDKEKSNISNDQLHALLCIYLEHTESILKAIEEIAGVGVPELINSPKDASSSTFPTLTRHTFVVFFRVMMAELEKTVKKIEPGTAADSQQIHEEKLLYWNMAVRDFSILINLIKVFDSHPVLHVCLKYGRLFVEAFLKQCMPLLDFSFRKHREDVLSLLETFQLDTRLLHHLCGHSKIHQDTRLTQHVPLLKKTLELLVCRVKAMLTLNNCREAFWLGNLKNRDLQGEEIKSQNSQESTADESEDDMSSQASKSKATEDGEEDEVSAGEKEQDSDESYDDSD
stoichiometry N: 1
